What all share (assay): relative viability (nuclei count vs DMSO), 5 days (fraction); higher = more cells survive
Compound in the test “XMD8-85 + Phenformin”: CN1CCN(CC1)C2=CC(=C(C=C2)NC3=NC=C4C(=N3)N(C5=CC=CC=C5C(=O)N4C)C)OC [XMD8-85] + N=C(N)NC(=N)NCCc1ccccc1 [Phenformin] (partner 250 µM)
In a few lines:
(§1)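 Relative viability is defined as nuclei in treated wells over nuclei in vehicle wells. Duplicate plates were run and medians reported. Lung cancer cell lines in 1536-well plates were dosed by pin tool one day after seeding, with one drug or with a fixed anchor-drug dose plus five library-drug doses (not always all listed) in √10 steps, and nuclei were counted after 5 days.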

Compound in the test “XMD8-85 + Lapatinib”: CN1CCN(CC1)C2=CC(=C(C=C2)NC3=NC=C4C(=N3)N(C5=CC=CC=C5C(=O)N4C)C)OC [XMD8-85] + CS(=O)(=O)CCNCc1ccc(-c2ccc3ncnc(Nc4ccc(OCc5cccc(F)c5)c(Cl)c4)c3c2)o1 [Lapatinib] (partner 2 µM)
In a few lines: as §1

Compound in the test “XMD8-85 + OSI-027”: CN1CCN(CC1)C2=CC(=C(C=C2)NC3=NC=C4C(=N3)N(C5=CC=CC=C5C(=O)N4C)C)OC [XMD8-85] + COc1cccc2cc(-c3nc([C@H]4CC[C@H](C(=O)O)CC4)n4ncnc(N)c34)[nH]c12 [OSI-027] (partner 0.5 µM)
To be noted: first compound 8 µM. In a few lines: as §1

Compound in the test “XMD8-85 + Foretinib”: CN1CCN(CC1)C2=CC(=C(C=C2)NC3=NC=C4C(=N3)N(C5=CC=CC=C5C(=O)N4C)C)OC [XMD8-85] + COc1cc2c(Oc3ccc(NC(=O)C4(C(=O)Nc5ccc(F)cc5)CC4)cc3F)ccnc2cc1OCCCN1CCOCC1 [Foretinib] (partner 0.25 µM)
An outline of the steps: as §1

Compound in the test “XMD8-85 + Vorinostat”: CN1CCN(CC1)C2=CC(=C(C=C2)NC3=NC=C4C(=N3)N(C5=CC=CC=C5C(=O)N4C)C)OC [XMD8-85] + O=C(CCCCCCC(=O)Nc1ccccc1)NO [Vorinostat] (partner 1 µM)
In a few lines:
as §1

Compound in another test: CN1CCN(CC1)C2=CC(=C(C=C2)NC3=NC=C4C(=N3)N(C5=CC=CC=C5C(=O)N4C)C)OC [XMD8-85]
An outline of the steps:
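Lung cancer cell lines in 1536-well plates were exposed by pinning to five library-drug doses (not always all listed) √10 apart, following an overnight hold at 37 °C. MetaXpress counted Hoechst-stained nuclei from 4× images taken after 5 days without medium change. Viability is the median ratio of treated-well to vehicle-well nuclei across plates. Plates required control CV below 25% and at least one doubling.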

Compound in the test “XMD8-85 + Dasatinib”: CN1CCN(CC1)C2=CC(=C(C=C2)NC3=NC=C4C(=N3)N(C5=CC=CC=C5C(=O)N4C)C)OC [XMD8-85] + Cc1nc(Nc2ncc(C(=O)Nc3c(C)cccc3Cl)s2)cc(N2CCN(CCO)CC2)n1 [Dasatinib] (partner 0.075 µM)
An outline of the steps: as §1

Compound in the test “XMD8-85 + Linsitinib”: CN1CCN(CC1)C2=CC(=C(C=C2)NC3=NC=C4C(=N3)N(C5=CC=CC=C5C(=O)N4C)C)OC [XMD8-85] + C[C@]1(O)C[C@@H](c2nc(-c3ccc4ccc(-c5ccccc5)nc4c3)c3c(N)nccn32)C1 [Linsitinib] (partner 1 µM)
In a few lines:
as §1

Compound in the test “XMD8-85 + Alpelisib”: CN1CCN(CC1)C2=CC(=C(C=C2)NC3=NC=C4C(=N3)N(C5=CC=CC=C5C(=O)N4C)C)OC [XMD8-85] + Cc1nc(NC(=O)N2CCC[C@H]2C(N)=O)sc1-c1ccnc(C(C)(C)C(F)(F)F)c1 [Alpelisib] (partner 2 µM)
An outline of the steps:
as §1

Compound in the test “XMD8-85 + Luminespib”: CN1CCN(CC1)C2=CC(=C(C=C2)NC3=NC=C4C(=N3)N(C5=CC=CC=C5C(=O)N4C)C)OC [XMD8-85] + CCNC(=O)c1noc(-c2cc(C(C)C)c(O)cc2O)c1-c1ccc(CN2CCOCC2)cc1 [Luminespib] (partner 0.01 µM)
An outline of the steps:
as §1

Compound in the test “XMD8-85 + Palbociclib”: CN1CCN(CC1)C2=CC(=C(C=C2)NC3=NC=C4C(=N3)N(C5=CC=CC=C5C(=O)N4C)C)OC [XMD8-85] + CC(=O)c1c(C)c2cnc(Nc3ccc(N4CCNCC4)cn3)nc2n(C2CCCC2)c1=O [Palbociclib] (partner 0.5 µM)
An outline of the steps:
as §1

Compound in the test “XMD8-85 + AZD7762”: CN1CCN(CC1)C2=CC(=C(C=C2)NC3=NC=C4C(=N3)N(C5=CC=CC=C5C(=O)N4C)C)OC [XMD8-85] + NC(=O)Nc1cc(-c2cccc(F)c2)sc1C(=O)N[C@H]1CCCNC1 [AZD7762] (partner 0.2 µM)
In a few lines:
as §1

Compound in the test “XMD8-85 + Olaparib”: CN1CCN(CC1)C2=CC(=C(C=C2)NC3=NC=C4C(=N3)N(C5=CC=CC=C5C(=O)N4C)C)OC [XMD8-85] + O=C(c1cc(Cc2n[nH]c(=O)c3ccccc23)ccc1F)N1CCN(C(=O)C2CC2)CC1 [Olaparib] (partner 8 µM)
An outline of the steps:
as §1

Compound in the test “XMD8-85 + Tozasertib”: CN1CCN(CC1)C2=CC(=C(C=C2)NC3=NC=C4C(=N3)N(C5=CC=CC=C5C(=O)N4C)C)OC [XMD8-85] + Cc1cc(Nc2cc(N3CCN(C)CC3)nc(Sc3ccc(NC(=O)C4CC4)cc3)n2)n[nH]1 [Tozasertib] (partner 0.1 µM)
In a few lines:
as §1

Compound in the test “XMD8-85 + Pemetrexed”: CN1CCN(CC1)C2=CC(=C(C=C2)NC3=NC=C4C(=N3)N(C5=CC=CC=C5C(=O)N4C)C)OC [XMD8-85] + Nc1nc2[nH]cc(CCc3ccc(C(=O)N[C@@H](CCC(=O)O)C(=O)O)cc3)c2c(=O)[nH]1 [Pemetrexed] (partner 0.2 µM)
The note with it: first compound 0.253 µM. An outline of the steps: as §1

Compound in the test “XMD8-85 + Trametinib”: CN1CCN(CC1)C2=CC(=C(C=C2)NC3=NC=C4C(=N3)N(C5=CC=CC=C5C(=O)N4C)C)OC [XMD8-85] + CC(=O)Nc1cccc(-n2c(=O)n(C3CC3)c(=O)c3c(Nc4ccc(I)cc4F)n(C)c(=O)c(C)c32)c1 [Trametinib] (partner 0.02 µM)
An outline of the steps:
as §1

Compound in the test “XMD8-85 + Bortezomib”: CN1CCN(CC1)C2=CC(=C(C=C2)NC3=NC=C4C(=N3)N(C5=CC=CC=C5C(=O)N4C)C)OC [XMD8-85] + CC(C)C[C@H](NC(=O)[C@H](Cc1ccccc1)NC(=O)c1cnccn1)B(O)O [Bortezomib] (partner 0.002 µM)
The note with it: first compound 8 µM. An outline of the steps: as §1

Compound in the test “XMD8-85 + Navitoclax”: CN1CCN(CC1)C2=CC(=C(C=C2)NC3=NC=C4C(=N3)N(C5=CC=CC=C5C(=O)N4C)C)OC [XMD8-85] + CC1(C)CCC(c2ccc(Cl)cc2)=C(CN2CCN(c3ccc(C(=O)NS(=O)(=O)c4ccc(N[C@H](CCN5CCOCC5)CSc5ccccc5)c(S(=O)(=O)C(F)(F)F)c4)cc3)CC2)C1 [Navitoclax] (partner 0.5 µM)
An outline of the steps: as §1

Compound in the test “XMD8-85 + Crizotinib”: CN1CCN(CC1)C2=CC(=C(C=C2)NC3=NC=C4C(=N3)N(C5=CC=CC=C5C(=O)N4C)C)OC [XMD8-85] + C[C@@H](Oc1cc(-c2cnn(C3CCNCC3)c2)cnc1N)c1c(Cl)ccc(F)c1Cl [Crizotinib] (partner 1 µM)
In a few lines: as §1

Compound in the test “XMD8-85 + Decitabine”: CN1CCN(CC1)C2=CC(=C(C=C2)NC3=NC=C4C(=N3)N(C5=CC=CC=C5C(=O)N4C)C)OC [XMD8-85] + Nc1ncn([C@H]2C[C@H](O)[C@@H](CO)O2)c(=O)n1 [Decitabine] (partner 2 µM)
An outline of the steps:
as §1

Compound in the test “XMD8-85 + Pictilisib”: CN1CCN(CC1)C2=CC(=C(C=C2)NC3=NC=C4C(=N3)N(C5=CC=CC=C5C(=O)N4C)C)OC [XMD8-85] + CS(=O)(=O)N1CCN(Cc2cc3nc(-c4cccc5[nH]ncc45)nc(N4CCOCC4)c3s2)CC1 [Pictilisib] (partner 1 µM)
The note with it: first compound 0.8 µM. In a few lines:
as §1

As for LOU-NH91, the relative viability with XMD8-85 + Phenformin (first compound 0.8 µM) amounted to 0.718; in the test with XMD8-85 + Lapatinib (first compound 0.08 µM), 0.743; in the test with XMD8-85 + OSI-027 it was 0.616; in the test with XMD8-85 + Foretinib (first compound 0.08 µM), 0.916.
Take LU99A: the relative viability with XMD8-85 + Vorinostat (first compound 2.53 µM) is 0.483; in the test with XMD8-85 + Foretinib (first compound 0.253 µM), 0.777.
With HOP-62, the relative viability in the test with XMD8-85 (8 µM) came out at 0.687; with XMD8-85 + Dasatinib (first compound 2.53 µM) it was 0.685; in the test with XMD8-85 + Linsitinib (first compound 8 µM), 0.664; in the test with XMD8-85 + Alpelisib (first compound 8 µM) it was 0.613; with XMD8-85 + Luminespib (first compound 0.253 µM) it was 0.927; in the test with XMD8-85 + Palbociclib (first compound 0.8 µM), 0.419. Also, in the test with XMD8-85 + AZD7762 (first compound 2.53 µM), the relative viability came to 0.663.
As to SK-MES-1, the relative viability in the test with XMD8-85 + Dasatinib (first compound 2.53 µM) turned out to be 0.326; in the test with XMD8-85 + Olaparib (first compound 0.8 µM) it was 0.693; with XMD8-85 + Alpelisib (first compound 8 µM), 0.777; with XMD8-85 + Palbociclib (first compound 2.53 µM) it was 0.328; with XMD8-85 + Tozasertib (first compound 0.8 µM), 0.938.
For NCI-H596, the relative viability with XMD8-85 + Alpelisib (first compound 0.08 µM) amounted to 0.418; with XMD8-85 + Luminespib (first compound 0.8 µM), 0.916; with XMD8-85 + OSI-027, 0.577; with XMD8-85 + Pemetrexed, 0.452.
As for SW 900, the relative viability with XMD8-85 + Trametinib (first compound 2.53 µM) came to 0.654.
For LC-2-ad, the relative viability in the test with XMD8-85 + Phenformin (first compound 8 µM) is 0.372; with XMD8-85 + Bortezomib, 0.621; with XMD8-85 + Navitoclax (first compound 0.8 µM), 0.613; with XMD8-85 + Alpelisib (first compound 8 µM), 0.519; in the test with XMD8-85 + Vorinostat (first compound 0.253 µM), 0.684.
HCC-827: the relative viability in the test with XMD8-85 + Phenformin (first compound 0.253 µM) was determined as 0.396; with XMD8-85 + Phenformin (first compound 0.8 µM) it was 0.423; with XMD8-85 + Crizotinib (first compound 0.08 µM) it was 1.02; with XMD8-85 + Tozasertib (first compound 0.08 µM), 0.425.
Turning to HCC-44, the relative viability with XMD8-85 (0.8 µM) came out at 0.991.
Consider NCI-H727, for which the relative viability with XMD8-85 + Lapatinib (first compound 0.8 µM) came to 0.879; with XMD8-85 + Navitoclax (first compound 0.8 µM), 0.418; with XMD8-85 + Palbociclib (first compound 0.08 µM), 0.625; in the test with XMD8-85 + Palbociclib (first compound 8 µM) it was 0.589.
SW 1573: the relative viability with XMD8-85 (8 µM) worked out at 0.661; with XMD8-85 + Olaparib (first compound 2.53 µM), 0.419; in the test with XMD8-85 + Linsitinib (first compound 0.8 µM), 0.642; with XMD8-85 + Decitabine (first compound 0.8 µM) it was 0.632; in the test with XMD8-85 + Palbociclib (first compound 0.08 µM) it was 0.328.
For NCI-H1944, the relative viability with XMD8-85 + Vorinostat (first compound 0.253 µM) was determined as 0.626; with XMD8-85 + Foretinib (first compound 0.08 µM), 0.916.
Take NCI-H2347: the relative viability with XMD8-85 + Phenformin (first compound 8 µM) was determined as 0.392; with XMD8-85 + Decitabine (first compound 2.53 µM), 0.646; with XMD8-85 + Navitoclax (first compound 0.8 µM), 0.777; in the test with XMD8-85 + AZD7762 (first compound 0.253 µM), 0.899; with XMD8-85 + AZD7762 (first compound 2.53 µM), 0.761.
On to NCI-H1793, for which the relative viability with XMD8-85 + Foretinib (first compound 0.08 µM) came out at 0.726.
As to 201T, the relative viability is 0.621 with XMD8-85 + Dasatinib (first compound 0.08 µM) and 0.953 with XMD8-85 + Tozasertib (first compound 0.8 µM).
In the case of NCI-H520, the relative viability in the test with XMD8-85 + Trametinib (first compound 0.08 µM) came to 0.712; in the test with XMD8-85 + Decitabine (first compound 0.08 µM), 0.482; in the test with XMD8-85 + Vorinostat (first compound 0.8 µM), 0.703.
Take NCI-H2023: the relative viability was determined as 0.679 with XMD8-85 + Navitoclax (first compound 8 µM), 0.753 in the test with XMD8-85 + Vorinostat (first compound 0.8 µM) and 0.807 with XMD8-85 + Luminespib (first compound 0.8 µM).
Turning to NCI-H1993, the relative viability with XMD8-85 + Olaparib (first compound 0.08 µM) was found to be 0.961; with XMD8-85 + Navitoclax (first compound 0.253 µM) it was 0.936; with XMD8-85 + Alpelisib (first compound 0.253 µM), 0.654.
Turning to BEN, the relative viability with XMD8-85 + Lapatinib (first compound 0.253 µM) was found to be 0.719; with XMD8-85 + Crizotinib (first compound 0.8 µM) it was 0.817; with XMD8-85 + Pictilisib, 0.522; in the test with XMD8-85 + Tozasertib (first compound 0.253 µM), 0.458.

The record behind these values is the supplement of paper PMC10307832.
